The numbers were not newly measured in patent US20090275546A1, “Diagnostic tests and personalized treatment regimes for cancer stem cells” (Istituto Superiore di Sanita, priority 2008, published 2009), which cites them from elsewhere.

Protein sequences, listed by entry. Tags and fused reporters are not part of them. Lines headed by an entry give the natural chain unless they say otherwise; changes in a name come on top.
UniProt P49841: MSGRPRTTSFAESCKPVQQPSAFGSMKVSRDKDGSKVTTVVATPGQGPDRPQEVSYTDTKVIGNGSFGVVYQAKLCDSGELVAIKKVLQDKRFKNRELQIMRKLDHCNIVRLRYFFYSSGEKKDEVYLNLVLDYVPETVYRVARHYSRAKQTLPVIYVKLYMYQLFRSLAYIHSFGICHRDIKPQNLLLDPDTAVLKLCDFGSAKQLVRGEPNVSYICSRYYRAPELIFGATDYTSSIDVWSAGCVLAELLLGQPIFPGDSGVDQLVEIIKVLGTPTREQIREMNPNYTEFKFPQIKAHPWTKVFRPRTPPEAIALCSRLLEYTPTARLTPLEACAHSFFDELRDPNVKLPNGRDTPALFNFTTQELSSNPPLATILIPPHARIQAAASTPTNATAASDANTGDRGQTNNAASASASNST

As a reminder, the IC50 is the point on the concentration scale where inhibition reaches its midpoint.

The series concerns the target GSK-3b (glycogen synthase kinase 3b) (Homo sapiens, UniProt P49841). The following applies: cited from earlier work.

Consider Indirubin-3′-monoxime, for which the IC50 was 22 nM.
